Measurements from US8299252B2, “Pyrazolopyridine and pyrrolopyridine multikinase inhibitors” (Chugai Seiyaku Kabushiki Kaisha, priority 2005, dated 2012).
pIC50: −log10 of the molar value.

How the values were obtained:
Assay type in all cases: cell-based
[1] = tested on: human colon cancer cell line HCT116 cells; test: Cell proliferation inhibitory activity, HCT116; settings: HCT-116, HCT116, 72 hours, WST-8, read-out: 50% proliferation inhibitory concentration (IC50 value) HCT116
Protocol: (§1) The compounds according to the present invention were measured for cancer cell proliferation inhibitory activity and human umbilical vein endothelial cell (HUVEC) proliferation inhibitory activity. As control compounds, the following known Compound A (BAY 43-9006) and Compound B were used.
(§2) Test compounds were serially diluted with dimethyl sulfoxide and then diluted 50 times with Ca^2+- and Mg^2+-free phosphate-buffered saline, and 20 μL of each of the resulting solution was dispensed into a 96-well plate. Separately, cell suspensions of human colon cancer cell line HCT116 cells suspended in McCoy's 5a culture medium supplemented with 10% fetal bovine serum, human umbilical vein endothelial cells (HUVECs: purchased from Clonetics) suspended in PRMI 1640 culture medium supplemented with 10% fetal bovine serum, 30 μg/mL of vascular endothelial cell growth-promoting agent, and 50 μg/mL of heparin for VEGF-independent HUVEC proliferation inhibition assay, and HUVECs suspended in PRMI 1640 culture medium supplemented with 10% fetal bovine serum and 20 ng/mL of VEGF for VEGF-dependent HUVEC proliferation inhibition assay were prepared. Each cell suspension contains approximately 3000 cells/180 μL. […] 20 μL of WST-8 (HCT116, Dojin) or WST-1 (HUVEC, Roche Diagnostics) was added to each well, and absorbance at 450 nm (reference wavelength: 650 nm) was measured. […]

[2] = tested on: human umbilical vein endothelial cells (HUVEC), VEGF-dependent proliferation; test: VEGF-dependent HUVEC proliferation inhibition assay; settings: 20 ng/mL of VEGF, 72 hours, WST-1, read-out: 50% proliferation inhibitory concentration (IC50 value) HUVEC (VEGF-dependent)
Protocol: as §1, §2

[3] = tested on: human umbilical vein endothelial cells (HUVEC), VEGF-independent proliferation; test: VEGF-independent HUVEC proliferation inhibition assay; settings: vascular endothelial cell growth-promoting agent and heparin, 72 hours, WST-1, read-out: 50% proliferation inhibitory concentration (IC50 value) HUVEC (VEGF-independent)
Protocol: as §1, §2

[4] = tested on: tube formation of human-derived vascular endothelial cells (HUVEC); test: Tube formation inhibition test (angiogenesis assay kit, KURABO); settings: 264 h, final concentration 6.4 nM, 11 days, read-out: Tube formation inhibition ratio (%)
Protocol: Each test compound was added to an angiogenesis assay kit (KURABO) so that the final concentration was 6.4 nM and incubated in a 5% carbon dioxide gas incubator at 37° C. for 11 days. The formed tubes were stained with a tube staining kit CD31 (KURABO). The stain image of each well was taken under a microscope, stored in an image file, and measured for the tube formation area using angiogenesis quantitative analysis software of KURABO. The inhibition ratio % of each test compound added to the well was calculated, provided that the ratio of the reference was 100%.

- pIC50 [1]: 5.52
Compound: CNC(=O)c1cc(Oc2ccc(NC(=O)Nc3ccc(Cl)c(C(F)(F)F)c3)cc2)ccn1 [Compound A, BAY 43-9006, reference compound]
- pIC50 [2]: 7.68
- pIC50 [3]: 5.34
- inhibition at 0.0064 µM [4]: 21%
